# Reference: patent publication US20200031771A1, “SUBSTITUTED PHENYLPROPIONIC ACID ENANTIOMER AND MANUFACTURING METHOD, COMPOSITION, AND APPLICATION OF SAME” (SHENZHEN CHIPSCREEN BIOSCIENCES CO., LTD., priority 2016, published 2020)
# Test system: db/db mice
# Assay: Glucose tolerance test (OTGG) in db/db mice after 14 days of administration
# Assay type: in vivo, mouse
# Details: oral 2 g/kg glucose, 0-120 min, n = 10
# Method: The route of administration was oral, the dose was 20 mg/kg in the administration group and 5 mg/kg in the control group, the frequency of administration was once a day, and the administration period was 14 days. […] On days 0, 3, 6, 9, 12, and 14, after fasting for 6 hours after administration, blood was collected from the tail vein and fasting blood glucose levels was measured by a blood glucose meter and recorded.
# After 14 days of administration, the animals were fasted overnight (<10 hours), and orally given 2 g/kg of glucose on the next day. Blood was collected from the tail vein at the 0 (pre-administration or fasting blood glucose level), 15, 30, 60 and 120 minutes after administration, respectively, and blood glucose levels were then measured by blood glucose meter and recorded.
structure (smiles),measurement,value
"CN(CCOc1ccc(CC2SC(=O)NC2=O)cc1)c1ccccn1 (stereo not shown) [rosiglitazone, reference compound]","Glucose tolerance test AUC, average value",45.76
